Read-outs that look alike come from different tables or passages of the source.
What was measured:
[1] = test system: dental caries; settings: cited from earlier work
[2] = Change over time of pH and soluble calcium in remineralization solutions with addition of hydroxyapatite crystal nuclei; type: physicochemical; settings: in combination with POs-Ca and 0.001% by weight polyphenol; 10 ppm fluoride; pH 6.5, 37° C.

In the case of Monofluorophosphate, the Inhibition rate ([1]; Fluoride added dentifrice, 1000 ppm) is listed as 15-20%.

For Sodium silicofluoride, the Inhibition rate ([1]; Systemic application, addition of fluoride to city water, 0.6-1 ppm, Permanent tooth) is listed as 40-60%.

For monofluorophosphoric acid, the “solubility of both calcium ions and fluoride ions” value [2] was “can be maintained in a neutral range”.

Reference: patent publication US20110256072A1, “FOOD AND COMPOSITION EACH COMPRISING PHOSPHORYLATED SACCHARIDE, POLYPHENOL AND FLUORIDE” (EZAKI GLICO CO., LTD., priority 2008, published 2011)
